Test results published in ChEMBL document CHEMBL1134793, “Investigation of the selectivity of oxymorphone- and naltrexone-derived ligands via site-directed mutagenesis of opioid receptors: exploring the "address" recognition locus” (J Med Chem, 2001).
Values joined by “and” are separate entries in the source; they are usually repeats but may differ in a detail not shown here. Identical values can stand only once.

The chains behind the UniProt entries cited, without tags or fusion partners.
UniProt P33535, whole entry W318A: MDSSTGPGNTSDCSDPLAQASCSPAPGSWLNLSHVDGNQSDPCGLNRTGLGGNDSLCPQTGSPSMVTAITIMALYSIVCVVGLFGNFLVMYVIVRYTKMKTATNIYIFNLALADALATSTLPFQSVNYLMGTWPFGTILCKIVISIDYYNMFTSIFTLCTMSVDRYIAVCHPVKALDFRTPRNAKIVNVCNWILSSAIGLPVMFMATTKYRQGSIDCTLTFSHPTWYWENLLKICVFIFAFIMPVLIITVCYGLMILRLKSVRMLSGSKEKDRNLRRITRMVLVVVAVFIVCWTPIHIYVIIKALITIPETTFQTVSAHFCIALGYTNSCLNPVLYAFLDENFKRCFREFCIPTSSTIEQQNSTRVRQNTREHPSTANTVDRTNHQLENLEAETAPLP
UniProt P33535, whole entry: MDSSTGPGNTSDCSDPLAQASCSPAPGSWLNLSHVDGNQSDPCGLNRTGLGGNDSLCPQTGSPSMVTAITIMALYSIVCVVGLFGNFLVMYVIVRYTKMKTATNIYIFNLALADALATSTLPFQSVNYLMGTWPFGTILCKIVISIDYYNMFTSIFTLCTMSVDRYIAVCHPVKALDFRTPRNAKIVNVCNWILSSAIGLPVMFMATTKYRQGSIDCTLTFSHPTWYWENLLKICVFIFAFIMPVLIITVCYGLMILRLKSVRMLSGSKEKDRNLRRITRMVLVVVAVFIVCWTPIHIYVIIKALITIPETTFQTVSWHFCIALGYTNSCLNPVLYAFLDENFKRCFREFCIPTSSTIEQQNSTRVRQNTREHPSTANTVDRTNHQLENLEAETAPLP
UniProt P33535, whole entry K303E: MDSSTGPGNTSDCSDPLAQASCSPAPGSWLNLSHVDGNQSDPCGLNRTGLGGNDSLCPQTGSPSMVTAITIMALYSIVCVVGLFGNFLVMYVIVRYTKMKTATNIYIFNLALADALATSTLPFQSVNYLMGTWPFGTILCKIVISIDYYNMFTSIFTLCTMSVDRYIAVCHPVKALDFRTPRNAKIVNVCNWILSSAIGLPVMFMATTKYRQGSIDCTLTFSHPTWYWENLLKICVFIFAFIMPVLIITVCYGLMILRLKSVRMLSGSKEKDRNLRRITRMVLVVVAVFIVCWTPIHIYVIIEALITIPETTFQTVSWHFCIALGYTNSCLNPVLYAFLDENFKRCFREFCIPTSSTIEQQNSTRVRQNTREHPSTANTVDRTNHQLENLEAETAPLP

Experiments:
Type in all cases: cell-based, HEK293
[1] = target: T1, Mu-type opioid receptor (Rattus norvegicus, UniProt P33535, W318A); assay: Displacement of [3H]- diprenorphine from mu-W318A-receptor expressed in HEK 293
[2] = target: Mu-type opioid receptor (Rattus norvegicus, UniProt P33535); assay: Displacement of [3H]- diprenorphine from mu-receptor expressed in HEK 293 cells
[3] = target: Mu-type opioid receptor (Rattus norvegicus, UniProt P33535, K303E); assay: Displacement of [3H]- diprenorphine from mu-K303E-receptor expressed in HEK 293
[4] = target: T1, Mu-type opioid receptor; assay: Displacement of [3H]- diprenorphine from mu-W318A-receptor expressed in HEK 293 cells

| Structure (SMILES) | Ki [1] [nM] | Ki [2] [nM] | Ki [3] [nM] | Ki [4] |
| --- | --- | --- | --- | --- |
| Oc1ccc2c3c1O[C@H]1c4[nH]c5ccccc5c4C[C@@]4(O)[C@@H](C2)N(CC2CC2)CC[C@]314 [NALTRINDOLE] | 0.36 | 34.4 | 13.5 | – |
| Oc1ccc2c3c1O[C@H]1c4[nH]c5c(c4C[C@@]4(O)[C@@H](C2)N(CC2CC2)CC[C@]314)C[C@@]1(O)[C@H]2Cc3ccc(O)c4c3[C@@]1(CCN2CC1CC1)[C@H]5O4 [NORBINALTORPHIMINE] | – | 56.6 | – | 0.39 nM and 0.22 nM |
